# Measured affinities in a library of Ab-95 light chain variants

Antigen: PDVDLGDISGINAS, a 14-residue peptide of the SARS-CoV-2 spike HR2 region.

Each scFv is VH, a (GGGGS)3 linker, VL, as in the parent Ab-95, and differs from it in the CDRs of the light chain only.
VH: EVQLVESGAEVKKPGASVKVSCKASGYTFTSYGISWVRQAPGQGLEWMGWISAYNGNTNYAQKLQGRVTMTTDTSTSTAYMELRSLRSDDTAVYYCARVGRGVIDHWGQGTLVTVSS
VL: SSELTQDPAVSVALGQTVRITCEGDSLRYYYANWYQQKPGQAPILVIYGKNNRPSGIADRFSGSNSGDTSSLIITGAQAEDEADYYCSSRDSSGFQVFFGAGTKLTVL

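In library AAYL52, one, two or three CDR residues were substituted; doubles and triples were drawn at random. AlphaSeq pools MATa yeast showing the antibodies with MATalpha yeast showing the peptide. Pairs that bind mate more often; barcode pairs of the diploids are counted by sequencing. A regression on co-assayed BCL2-family reference pairs converts the normalised counts of each replicate to an apparent Kd. Mating was done three times.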

Variants are written as CDR1, CDR2 and CDR3 of the light chain (limits as in the source). Parent: EGDSLRYYYAN, GKNNRPS, SSRDSSGFQVF.
Numbers give log10(Kd / nM), so 0 is 1 nM and 3 is 1 µM. Smaller is tighter.
A mean of the replicates is given; it leaves out those without a signal.
Where no diploid with the target was found in that replicate, the entry reads "ND": below detection, most likely a poor binder, though not proof of it.
As a blank, each scFv also met three strains without target: over library AAYL52, 28% of these pairings were detected, typically at 3.91 and seldom below 2.90. Also given: how often the same scFv was detected with the empty control strains, with their mean in brackets.

{"CDR-L1": "GNDSLRYYYAN", "CDR-L2": "GKNNRGS", "CDR-L3": "SSRDSSGFQVF", "replicates, log10 nM": "2.95 / 2.99 / 2.89", "mean log10 Kd (nM)": "2.94", "signal with controls": "7/9 (3.57)"}
{"CDR-L1": "EGDSLRYYYHN", "CDR-L2": "GKNNRKV", "CDR-L3": "SSRDSSGFQVF", "replicates, log10 nM": "ND / 3.06 / ND", "mean log10 Kd (nM)": "3.06", "signal with controls": "4/9 (3.79)"}
{"CDR-L1": "EGCSLRYYYAN", "CDR-L2": "AKNNRDS", "CDR-L3": "SSRDSSGFQVF", "replicates, log10 nM": "ND / ND / ND", "mean log10 Kd (nM)": "ND", "signal with controls": "1/9 (3.96)"}
{"CDR-L1": "IGDGLRYYYAN", "CDR-L2": "GYNNRPS", "CDR-L3": "SSRDSSGFQVF", "replicates, log10 nM": "4.95 / 4.31 / 4.44", "mean log10 Kd (nM)": "4.57", "signal with controls": "5/9 (4.13)"}
{"CDR-L1": "EGDSLRYYYAN", "CDR-L2": "GKNNRPY", "CDR-L3": "SSRDKSGFQVF", "replicates, log10 nM": "2.99 / 2.57 / 2.23", "mean log10 Kd (nM)": "2.59", "signal with controls": "1/9 (4.19)"}
{"CDR-L1": "EGDSLRYYIAN", "CDR-L2": "GKNNRPS", "CDR-L3": "SSRDSSGNQVF", "replicates, log10 nM": "ND / 2.96 / 3.21", "mean log10 Kd (nM)": "3.08", "signal with controls": "1/9 (4.64)"}
{"CDR-L1": "EGDSLRYYYEN", "CDR-L2": "GKNNRPS", "CDR-L3": "SSRDSSGFQVF", "replicates, log10 nM": "4.62 / 4.60 / 3.37", "mean log10 Kd (nM)": "4.19", "signal with controls": "3/9 (4.11)"}
{"CDR-L1": "EGDSLTYYYAN", "CDR-L2": "GKDNRPS", "CDR-L3": "SSRDSSGAQVF", "replicates, log10 nM": "2.59 / 2.94 / 2.28", "mean log10 Kd (nM)": "2.60", "signal with controls": "0/9"}
{"CDR-L1": "EGDSLRYYYAN", "CDR-L2": "RKNNKPS", "CDR-L3": "SSRDSSGFRVF", "replicates, log10 nM": "ND / 5.63 / ND", "mean log10 Kd (nM)": "5.63", "signal with controls": "1/9 (3.58)"}
{"CDR-L1": "EGHSLRYYYAN", "CDR-L2": "GKNNRIS", "CDR-L3": "SSADSSGFQVF", "replicates, log10 nM": "2.89 / 2.26 / ND", "mean log10 Kd (nM)": "2.57", "signal with controls": "0/9"}
{"CDR-L1": "EYDSLRHYYAN", "CDR-L2": "GKNERPS", "CDR-L3": "SSRDSSGFQVF", "replicates, log10 nM": "2.87 / 2.35 / 1.83", "mean log10 Kd (nM)": "2.35", "signal with controls": "3/9 (4.28)"}
{"CDR-L1": "EGDSLRYYYAN", "CDR-L2": "GKNNRPS", "CDR-L3": "WSDCSSGFQVF", "replicates, log10 nM": "3.14 / 4.42 / 3.41", "mean log10 Kd (nM)": "3.65", "signal with controls": "0/9"}
{"CDR-L1": "LGDSLRYYYAN", "CDR-L2": "GKNNRPS", "CDR-L3": "SSHDCSGFQVF", "replicates, log10 nM": "5.48 / ND / ND", "mean log10 Kd (nM)": "5.48", "signal with controls": "1/9 (4.43)"}
{"CDR-L1": "EGDSLRYYYAN", "CDR-L2": "KNNNRPS", "CDR-L3": "TSRDSSGFQVF", "replicates, log10 nM": "ND / ND / ND", "mean log10 Kd (nM)": "ND", "signal with controls": "3/9 (4.24)"}
{"CDR-L1": "ENDSLRQYYAN", "CDR-L2": "GKNNRDS", "CDR-L3": "SSRDSSGFQVF", "replicates, log10 nM": "ND / 4.83 / ND", "mean log10 Kd (nM)": "4.83", "signal with controls": "3/9 (4.14)"}
{"CDR-L1": "EGDSLRYYYAN", "CDR-L2": "GGNNRPS", "CDR-L3": "SSRNSVGFQVF", "replicates, log10 nM": "3.46 / 3.35 / ND", "mean log10 Kd (nM)": "3.40", "signal with controls": "1/9 (4.04)"}
{"CDR-L1": "EGDSLRYYYAN", "CDR-L2": "GKNNRPS", "CDR-L3": "GMRDSSGFLVF", "replicates, log10 nM": "3.91 / ND / 3.48", "mean log10 Kd (nM)": "3.69", "signal with controls": "3/9 (3.90)"}
{"CDR-L1": "EKDSLRCYYAN", "CDR-L2": "GKNNRPS", "CDR-L3": "SSRDSSGFQVF", "replicates, log10 nM": "3.35 / 5.44 / 3.99", "mean log10 Kd (nM)": "4.26", "signal with controls": "2/9 (3.55)"}
{"CDR-L1": "EGDSLRYYYAN", "CDR-L2": "IKNNRPS", "CDR-L3": "SSRDSRGFQVF", "replicates, log10 nM": "ND / 4.22 / ND", "mean log10 Kd (nM)": "4.22", "signal with controls": "7/9 (4.21)"}
{"CDR-L1": "AGDSLRYYYAN", "CDR-L2": "GKKNRPS", "CDR-L3": "SVRDSSGFQVF", "replicates, log10 nM": "3.48 / 3.57 / 2.62", "mean log10 Kd (nM)": "3.22", "signal with controls": "2/9 (3.61)"}
{"CDR-L1": "EGDSLRYYYAY", "CDR-L2": "GKVNRPS", "CDR-L3": "SYRDSSGFQVF", "replicates, log10 nM": "2.09 / 2.48 / 2.54", "mean log10 Kd (nM)": "2.37", "signal with controls": "1/9 (4.09)"}
{"CDR-L1": "EGDSLRYYYAE", "CDR-L2": "GKNNRDS", "CDR-L3": "SSRKSSGFQVF", "replicates, log10 nM": "ND / ND / ND", "mean log10 Kd (nM)": "ND", "signal with controls": "0/9"}
{"CDR-L1": "GGDSLRYYYAN", "CDR-L2": "GKANRPS", "CDR-L3": "SSCDSSGFQVF", "replicates, log10 nM": "2.98 / 3.32 / ND", "mean log10 Kd (nM)": "3.15", "signal with controls": "3/9 (3.47)"}
{"CDR-L1": "EGDSLRYYYDN", "CDR-L2": "GKNNRPS", "CDR-L3": "SSRDVSGWQVF", "replicates, log10 nM": "ND / ND / ND", "mean log10 Kd (nM)": "ND", "signal with controls": "1/9 (4.40)"}
{"CDR-L1": "EGDRLRYLYAN", "CDR-L2": "GKNNRPS", "CDR-L3": "DSRDSSGFQVF", "replicates, log10 nM": "4.30 / ND / ND", "mean log10 Kd (nM)": "4.30", "signal with controls": "0/9"}
{"CDR-L1": "EGDSLRYYYAN", "CDR-L2": "GKNHRPS", "CDR-L3": "SSRDSVGFQVN", "replicates, log10 nM": "3.51 / 3.18 / 4.37", "mean log10 Kd (nM)": "3.69", "signal with controls": "5/9 (4.21)"}
{"CDR-L1": "EGDSLRYYYAN", "CDR-L2": "GKNNRPS", "CDR-L3": "SSTDNSKFQVF", "replicates, log10 nM": "4.00 / ND / ND", "mean log10 Kd (nM)": "4.00", "signal with controls": "3/9 (3.58)"}

Repeated from above, the 3 best binders with a signal in all replicates:

| CDR-L1 | CDR-L2 | CDR-L3 | replicates, log10 nM | mean log10 Kd (nM) | signal with controls |
|---|---|---|---|---|---|
| EYDSLRHYYAN | GKNERPS | SSRDSSGFQVF | 2.87 / 2.35 / 1.83 | 2.35 | 3/9 (4.28) |
| EGDSLRYYYAY | GKVNRPS | SYRDSSGFQVF | 2.09 / 2.48 / 2.54 | 2.37 | 1/9 (4.09) |
| EGDSLRYYYAN | GKNNRPY | SSRDKSGFQVF | 2.99 / 2.57 / 2.23 | 2.59 | 1/9 (4.19) |

For reference, the parent read 2.31 as the reference entry and 2.25 as a member of this library.

Data: MIT Lincoln Laboratory AlphaSeq set, Engelhart et al. 2022, doi:10.1038/s41597-022-01779-4, as distributed in FLAb.